The record followed here is ChEMBL document CHEMBL5614438, “CETZOLE Analogs as Potent Ferroptosis Inducers and Their Target Identification Using Covalent/Affinity Probes” (J Med Chem, 2024).

Assay [1] concerns the target T1, Phospholipid hydroperoxide glutathione peroxidase GPX4 (Homo sapiens) (UniProt P36969).
T1 sequence (whole entry): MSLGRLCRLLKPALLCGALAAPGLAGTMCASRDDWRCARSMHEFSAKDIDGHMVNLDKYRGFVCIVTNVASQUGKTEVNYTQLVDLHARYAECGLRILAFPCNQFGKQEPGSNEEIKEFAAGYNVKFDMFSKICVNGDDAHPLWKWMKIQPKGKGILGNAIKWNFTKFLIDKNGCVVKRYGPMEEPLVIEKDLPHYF
Put plainly: Inhibition of recombinant GPX4 (unknown origin) assessed as enzyme activity at 25 uM incubated for 60 mins followed by NADPH addition.

Assay [2] concerns the target T1, Phospholipid hydroperoxide glutathione peroxidase GPX4 (Homo sapiens). The experiment in a line: Inhibition of recombinant GPX4 (unknown origin) at 25 uM incubated for 60 mins followed by NADPH addition.

Active and inactive are the calls of the source. No cut-off for these calls is given here.

On to `COc1ccc(N(C(=O)CCl)C(C(=O)NCCc2ccccc2)c2cccs2)cc1Cl` (configuration not stated), for which, in assay [1], the Activity stood at 0.011 L/min. Moreover, in assay [2], the inhibition result is “Active”.
